Experimental data published in ChEMBL document CHEMBL6103561, “Chemical dissection of selective myeloid leukemia-1 inhibitors: How they were found and evolved” (Eur J Med Chem, 2025).

Protein sequences, listed by entry. Tags and fused reporters are not part of them.
UniProt P10415, whole entry: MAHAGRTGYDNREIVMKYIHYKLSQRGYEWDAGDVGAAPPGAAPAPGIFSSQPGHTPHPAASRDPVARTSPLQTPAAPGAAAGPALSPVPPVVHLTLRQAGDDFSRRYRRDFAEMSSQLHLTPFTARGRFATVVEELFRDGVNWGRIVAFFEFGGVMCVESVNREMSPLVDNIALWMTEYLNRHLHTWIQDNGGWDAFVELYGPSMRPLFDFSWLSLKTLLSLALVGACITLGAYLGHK

What was measured:
[1] = target: Apoptosis regulator Bcl-2 (Homo sapiens, UniProt P10415)
HL-60 = experiment: Cytotoxicity against human HL-60 cells assessed as reduction in cell viability incubated for 48 hrs by CCK-8 assay; conditions: HL-60, 48 h
RS4-11 = experiment: cells; conditions: Homo sapiens, RS4-11, 48 h

Row | Ki [1] | IC50 (RS4-11) | Structure (SMILES) | IC50 (HL-60)
1 | 0.32 µM | – | Cc1cc2c(C(=O)NC[C@@H](C)c3ccccc3)c(O)c(O)cc2c(O)c1-c1c(C)cc2c(C(=O)NC[C@H](C)c3ccccc3)c(O)c(O)cc2c1O | –
2 | – | 5.6 µM | COc1ccc(Oc2ccc(C)cc2-c2ccsc2S(=O)(=O)NCCNC(=O)Nc2cc(C(F)(F)F)cc(C(F)(F)F)c2)cc1OC | 5.3 µM
